Experimental data taken from patent US20240294519A1, “PYRROLO[2,3-b]PYRIDINE PGDH INHIBITORS AND METHODS OF MAKING AND USING” (EPIRIUM BIO INC., priority 2021, published 2024).

Sequences of proteins named here, by UniProt entry; tags and fusion partners are left off.
UniProt P15428, whole entry: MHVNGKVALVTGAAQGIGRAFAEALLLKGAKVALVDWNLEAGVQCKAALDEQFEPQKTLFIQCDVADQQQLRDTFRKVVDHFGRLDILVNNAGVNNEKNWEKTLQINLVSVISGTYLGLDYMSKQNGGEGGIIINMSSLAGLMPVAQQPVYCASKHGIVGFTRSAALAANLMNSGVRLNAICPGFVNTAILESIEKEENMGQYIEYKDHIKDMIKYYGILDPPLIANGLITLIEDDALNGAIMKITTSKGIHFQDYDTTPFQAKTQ

What was measured:
15-PGDH/HPGD = 15-PGDH/HPGD (Homo sapiens, UniProt P15428); assay: hPGDH inhibitor screening biochemical assay; conditions: read-out: hPGDH: Average IC50; 10 nM enzyme, 15 μM PGE2, 0.25 mM NAD, fluorescence ex/em 340/485 nm
Protocol: A hydroxyprostaglandin dehydrogenase inhibition screening biochemical assay can be performed to assess the synthesized inhibitors provided herein. Provided herein is an exemplary biochemical assay for hPGDH inhibitor screening.
The in vitro biochemical assay can be performed in white, 384 plates in total 20 μl reaction volume consisting of 10 nM of 15-PGDH/HPGD (R&D System #5660-DH), 15 μM Prostaglandin E2 (Sigma, C8 t #P5640-10 MG) and 0.25 mM β-Nicotinamide adenine dinucleotide sodium salt (Sigma, C8 t #N0632-5G) made in reaction buffer (50 mM Tris-HCl, pH 7.5, 0.01% Tween 20) at 10-point dose response curve for test/tool compounds. Briefly, 5 μl (4×) of compounds solution and 5 μl (final concentration, 10 nM) of enzyme solution is added to white 384 well plates and incubated for 10 mins at 37° C. 5 μl (4×) of […] and 5 μl (4×) of β-Nicotinamide adenine dinucleotide sodium salt is added to the wells and incubated for 10 mins at room temperature. Fluorescence is recorded at ex/em=340 nm/485 nm. The percentage (%) inhibition of enzyme activity was determined relative to positive control (1% DMSO) and IC50 was calculated using GraphPad prism software (four parameter-variable slope equation).

15-PGDH = 15-PGDH (Homo sapiens, UniProt P15428); assay: A549 cell based assay: PGE2 in supernatant after IL-1β (HTRF); conditions: A549 cells, fold induction of PGE2, IL-1β plus test article versus IL-1β only
Protocol: Cell Based Assay: 15-PGDH is highly expressed in resting human lung adenocarcinoma cells (A549) (Tong et al., 2006), and this cell line was used to assess 15-PGDH inhibition by MF-300Na in vitro.
In this assay, A549 cells are treated with interleukin (IL) 1β, which induces the expression of cycloxygenase-2 and the synthesis of PGE2 (Tong et al., 2006). In the studies evaluating test articles, thirty thousand A549 cells were seeded in 100 μL F12K completed media and incubated for 24 hours at 37° C. with 5% CO2 before being serum-starved for 24 hours. On the day of the experiment, buffer was changed to complete medium, and cells were incubated for 30 minutes with compounds prior to the addition of IL-1β (final concentration of 0.1-0.25 ng/mL) overnight at 37° C. with 5% CO2. Each concentration was run in triplicate. […] The PGE2 in the supernatant was detected and quantified using a Cisbio HTRF technology (Homogeneous Time-Resolved Fluorescence) kit (62P2APEG-62P2APEH) according to the manufacturer's recommendations, quantifying the fold induction of PGE2 of cells treated with IL-1β plus test article, versus treatment with IL-1β only.

IC50 (15-PGDH/HPGD) [nM] | PGE2 - HTRF over IL-β induction at 0.001 μM (15-PGDH) | PGE2 - HTRF over IL-β induction at 0.01 μM (15-PGDH) | PGE2 - HTRF over IL-β induction at 0.1 μM (15-PGDH) | PGE2 - HTRF over IL-β induction at 1 μM (15-PGDH) | SMILES
< 100 | 3.31 | 3.35 | 3.7 | 4.03 | CC1CN(C(=O)c2cnc3c(ccn3-c3ccc(N4CCOC4=O)nc3)c2)CCC1(F)F (stereo not drawn)
< 100 | 1.54 | 4.35 | 6.28 | 7.01 | CCOC(=O)N(C)c1cncc(-n2ccc3cc(C(=O)N4CCC(F)(F)CC4)cnc32)c1
< 100 | – | – | – | – | CC1(C)CCCN(C(=O)c2cnc3c(ccn3-c3ccc(-c4ncn[nH]4)nc3)c2)C1
< 100 | – | – | – | – | Cc1nc(-c2ccc(-n3ccc4cc(C(=O)N5CCC(F)(F)CC5)cnc43)cn2)nn1C
< 100 | – | – | – | – | CO[C@H]1CCCN(C(=O)c2cnc3c(ccn3-c3ccc(-c4ncn[nH]4)nc3)c2)C1
< 100 | 4.9 | 7.31 | 9.67 | 4.03 | C[C@H]1CCCN(C(=O)c2cnc3c(ccn3-c3ccc(N4CCN(C)C4=O)nc3)c2)C1
< 100 | – | – | – | – | Cc1nnc(-c2ccc(-n3ccc4cc(C(=O)N5CCC(F)(F)CC5)cnc43)cn2)n1C
< 100 | 2.34 | 1.83 | 2.99 | 2.39 | CC(C)(C)OC(=O)Nc1cncc(-n2ccc3cc(C(=O)N4CCC(F)(F)CC4)cnc32)c1
